{
  "source": "patent US6099822A",
  "about": "“Imaging methods and compositions” (priority 1998, dated 2000)",
  "key": {"[1]": {"test_system": "MX-1 human breast tumor xenografts", "test": "Autoradiographic biodistribution of Tc-99m-TG and C14-DG in nude mice bearing MX-1 tumors", "format": "in vivo", "conditions": "in words", "description": "In order to better understand the pattern of Tc-99m-TG localization in tumors, autoradiographic biodistribution of Tc-99m-TG was compared to C^14 -DG in nude mice (18-20 g) bearing MX-1 human breast tumor xeno-grafts. 3 mCi (111 MBq) of Tc-99m-5TG and 5 μCi (185 kBq) of C^14 -DG were injected at the same time into the tail vein of the mice. Autoradiogram sections including the tumors and vital organs of the mice were obtained at 20 minutes, 1 hour, and 3 hours post injection and developed using simultaneous Tc-99m and C^14 exposures of the same sections."}, "[2]": {"test": "not given", "remark": "listed apart in the source"}, "Plasma protein": {"test_system": "Plasma protein", "conditions": "15 minute plasma samples, ultrafiltration"}, "MC26 colon carcinoma": {"test_system": "MC26 colon carcinoma", "conditions": "for Muscle uptake: contralateral thigh; for Muscle uptake / Heart uptake / Kidneys uptake / Liver uptake / Lungs uptake / Stomach uptake / Thyroid uptake / Tumor uptake: mean and SD, n = 5"}, "MC26 colon cancer": {"test_system": "MC26 colon cancer", "conditions": "mice loaded with non-radioactive D-glucose"}, "[3]": {"conditions": "i.v. 20 μCi/kg, biexponential model"}},
  "note": "Several values for one entry are separate records, joined by “and”; a condition that tells them apart may be missing. Equal values may be shown once. Read-outs that look alike come from different tables or passages of the source.",
  "data": [
    {"substance": "technetium-99m (Tc-99m)-labeled 5-thio-D-glucose [Tc-99m-TG]", "values": [
      {"measurement": "Tumor localization compared to C14-DG", "setting": "[1]; MX-1, 20 minutes, 1 hour, 3 hours", "result": "greater and more persistent tumor localization"},
      {"measurement": "Distribution within tumor", "setting": "[1]; MX-1, center of the tumors", "result": "concentrated at the center of the tumors"},
      {"measurement": "Labeling efficiency", "setting": "30 minute incubation at room temperature", "result": "98.5±0.8", "unit": "%"},
      {"measurement": "Stability of complex", "setting": "in words", "result": "high stability"},
      {"measurement": "Urinary excretion", "setting": "[2]; 1 hour post-injection, i.v.", "result": "53±5", "unit": "%"},
      {"measurement": "Plasma clearance", "setting": "[2]; [3]", "result": "14.5 ± 2", "unit": "mL/min"},
      {"measurement": "Renal clearance", "setting": "[2]; [3]", "result": "11.3 ± 3", "unit": "mL/min"},
      {"measurement": "Accumulation in the kidneys", "setting": "[2]; rabbits, in words", "result": "early and persistent accumulation in the kidneys"},
      {"measurement": "Extra-renal (hepatobiliary) excretion", "setting": "[2]; rabbits, in words", "result": "minor"},
      {"measurement": "Protein binding", "setting": "Plasma protein", "result": "32±0.2", "unit": "%"},
      {"measurement": "Muscle uptake", "setting": "MC26 colon carcinoma; 1 hour", "result": "0.6 ± 0.1", "unit": "% ID/g"},
      {"measurement": "Heart uptake", "setting": "MC26 colon carcinoma; 1 hour", "result": "0.17 ± 0.03", "unit": "% ID/organ"},
      {"measurement": "Kidneys uptake", "setting": "MC26 colon carcinoma; 1 hour", "result": "2.62±0.24", "unit": "% ID/organ"},
      {"measurement": "Liver uptake", "setting": "MC26 colon carcinoma; 1 hour", "result": "2.54±0.37", "unit": "% ID/organ"},
      {"measurement": "Lungs uptake", "setting": "MC26 colon carcinoma; 1 hour", "result": "0.41 ± 0.02", "unit": "% ID/organ"},
      {"measurement": "Stomach uptake", "setting": "MC26 colon carcinoma; 1 hour", "result": "0.46±0.13", "unit": "% ID/organ"},
      {"measurement": "Thyroid uptake", "setting": "MC26 colon carcinoma; 1 hour", "result": "0.17±0.06", "unit": "% ID/organ"},
      {"measurement": "Tumor uptake", "setting": "MC26 colon carcinoma; 1 hour, 60 min", "result": "1.6±0.3", "unit": "% ID/g"},
      {"measurement": "Muscle uptake", "setting": "MC26 colon carcinoma; 2 hours", "result": "0.5 ± 0.1", "unit": "% ID/g"},
      {"measurement": "Heart uptake", "setting": "MC26 colon carcinoma; 2 hours", "result": "0.12 ± 0.01", "unit": "% ID/organ"},
      {"measurement": "Kidneys uptake", "setting": "MC26 colon carcinoma; 2 hours", "result": "2.43 ± 0.20", "unit": "% ID/organ"},
      {"measurement": "Liver uptake", "setting": "MC26 colon carcinoma; 2 hours", "result": "2.33 ± 0.17", "unit": "% ID/organ"},
      {"measurement": "Lungs uptake", "setting": "MC26 colon carcinoma; 2 hours", "result": "0.34 ± 0.02", "unit": "% ID/organ"},
      {"measurement": "Tumor uptake", "setting": "MC26 colon carcinoma; 2 hours, 120 min", "result": "1.3±0.03 % ID/g and 1.4 ± 0.1 % ID/g"},
      {"measurement": "Stomach uptake", "setting": "MC26 colon carcinoma; 3 hours (text: over time)", "result": "0.2±0.05", "unit": "% ID/organ"},
      {"measurement": "Thyroid uptake", "setting": "MC26 colon carcinoma; 3 hours (text: over time)", "result": "0.05±0.02", "unit": "% ID/organ"},
      {"measurement": "Muscle uptake", "setting": "MC26 colon carcinoma; 3 hours", "result": "0.3 ± 0.1", "unit": "% ID/g"},
      {"measurement": "Heart uptake", "setting": "MC26 colon carcinoma; 3 hours", "result": "0.13 ± 0.03", "unit": "% ID/organ"},
      {"measurement": "Kidneys uptake", "setting": "MC26 colon carcinoma; 3 hours", "result": "2.95 ± 0.49", "unit": "% ID/organ"},
      {"measurement": "Liver uptake", "setting": "MC26 colon carcinoma; 3 hours", "result": "1.88 ± 0.77", "unit": "% ID/organ"},
      {"measurement": "Lungs uptake", "setting": "MC26 colon carcinoma; 3 hours", "result": "0.29 ± 0.07", "unit": "% ID/organ"},
      {"measurement": "Tumor uptake", "setting": "MC26 colon carcinoma; 3 hours, 180 min", "result": "1.2±0.3", "unit": "% ID/g"},
      {"measurement": "Tumor uptake preference", "setting": "MC26 colon carcinoma; in words", "result": "preferentially taken up by tumor tissue"},
      {"measurement": "In vivo stability (breakdown to Tc-99m-pertechnetate)", "setting": "MC26 colon carcinoma; inferred from thyroid and stomach uptake, in words", "result": "highly stable in vivo, exhibiting minimal or no breakdown to Tc-99m-pertechnetate"},
      {"measurement": "Decrease of tumor uptake (by a factor of)", "setting": "MC26 colon cancer", "result": "two"},
      {"measurement": "Concentrations in the blood and body background", "setting": "MC26 colon cancer; in words", "result": "increased concentrations"}
    ]}
  ]
}
